Paper PMC3492761 (Journal of medicinal chemistry, 2012)

Tests used:
[1] = female, Crl:CD1 (ICR), mouse, in vivo
[2] = tested on: MDCK cells; settings: dog
[3] = rat, in vivo; for AUC0→t / AUC0→∞ / MRT / k: male, Sprague-Dawley
[4] = tested on: influenza A/CA/04/2009 (H1N1) virus; settings: mouse, in vivo, po
[5] = dog, in vivo
[6] = in vivo; settings: dog, iv
[7] = rat, in vivo
[8] = in vitro; settings: human, rat, dog, plasma, pH 7.4
[9] = in vivo; settings: rat, iv
[10] = in vivo; settings: male, Sprague-Dawley, rat, po, 5 mg/kg
[11] = physchem; settings: water
[12] = male, mouse, in vivo, po, 10 mg/kg

With `CCOP(=O)(O)C1=C[C@@H](OC(CC)CC)[C@H](NC(C)=O)[C@@H](N)C1` as the compound, how does the “dose at which mortality occurred” value ([1]; ip) read?
Its value is 2000 mg/kg.

And the “nontoxic concentration to MDCK cells (highest testing concentration)” value [2]?
Its value is > 100 µM.

What about the AUC0→t ([3]; iv, 1 mg/kg) of the same compound?
The AUC0→t was 1267 ± 336 ng·h/mL.

And the “AUC0→∞” value ([3]; iv, 1 mg/kg)?
The value was 1286 ± 344 ng·h/mL.

And the MRT ([3]; iv, 1 mg/kg)?
Its MRT is 1.44 ± 0.79 h.

And the k ([3]; iv, 1 mg/kg)?
Its k is 0.428 ± 0.138 h⁻¹.

What about the “plasma concentrations after oral administration” value ([3]; po) of the same compound?
The value was “below the detection limit”.

Which “survival vs control group” value ([4]; 1 mg/kg/day) does the source give for `CCOP(=O)(O)C1=C[C@@H](OC(CC)CC)[C@H](NC(C)=O)[C@@H](NC(=N)N)C1` here?
The value was “significantly different from the control group”.

What about the “survival vs control group” value ([4]; 10 mg/kg/day) of the same compound?
The value was “significantly different from the control group”.

What about the AUC0→t ([5]; iv, 5 mg/kg) of the same compound?
Its AUC0→t is 24516 ± 1918 ng·h/mL.

What about the “AUC0→∞” value ([5]; iv, 5 mg/kg) of the same compound?
The value was 24641 ± 1936 ng·h/mL.

What about the MRT ([5]; iv, 5 mg/kg) of the same compound?
Its MRT is 1.52 ± 0.139 h.

What about the k ([5]; iv, 5 mg/kg) of the same compound?
Its k is 0.13 ± 0.03 h⁻¹.

And the AUC0→t ([5]; po, 20 mg/kg)?
The AUC0→t was 11019 ± 2975 ng·h/mL.

What about the “AUC0→∞” value ([5]; po, 20 mg/kg) of the same compound?
The value was 11561 ± 3210 ng·h/mL.

What about the MRT ([5]; po, 20 mg/kg) of the same compound?
The MRT was 5.12 ± 0.694 h.

What about the k ([5]; po, 20 mg/kg) of the same compound?
The k was 0.13 ± 0.03 h⁻¹.

What about the clearance [6] of the same compound?
Its clearance is 3.4 mL/min/kg.

And the AUC0→t ([7]; iv, 2 mg/kg)?
The AUC0→t was 3168 ± 492 ng·h/mL.

And the “AUC0→∞” value ([7]; iv, 2 mg/kg)?
The value was 3170 ± 492 ng·h/mL.

What about the MRT ([7]; iv, 2 mg/kg) of the same compound?
The MRT was 0.5 ± 0.03 h.

What about the k ([7]; iv, 2 mg/kg) of the same compound?
Its k is 0.16 ± 0.01 h⁻¹.

What about the MRT ([7]; po, 50 mg/kg) of the same compound?
Its MRT is 5.6 ± 0.23 h.

And the k ([7]; po, 50 mg/kg)?
Its k is 0.31 ± 0.01 h⁻¹.

What about the fraction unbound [8] of the same compound?
Its fraction unbound is 0.86 to 0.91.

What about the AUC0→t ([3]; iv, 0.3 mg/kg) of the same compound?
Its AUC0→t is 389 ± 35 ng·h/mL.

What about the “AUC0→∞” value ([3]; iv, 0.3 mg/kg) of the same compound?
Its value is 390 ± 36 ng·h/mL.

What about the MRT ([3]; iv, 0.3 mg/kg) of the same compound?
Its MRT is 0.53 ± 0.03 h.

And the k ([3]; iv, 0.3 mg/kg)?
Its k is 1.285 ± 0.037 h⁻¹.

What about the AUC0→t ([3]; po, 5 mg/kg) of the same compound?
Its AUC0→t is 69.6 ± 10.2 ng·h/mL.

And the “AUC0→∞” value ([3]; po, 5 mg/kg)?
Its value is 77.9 ± 10.3 ng·h/mL.

And the MRT ([3]; po, 5 mg/kg)?
Its MRT is 2.05 ± 0.27 h.

And the k ([3]; po, 5 mg/kg)?
Its k is 0.669 ± 0.126 h⁻¹.

What about the clearance [9] of the same compound?
The clearance was 10.7 mL/min/kg.

And the Tmax [10]?
The Tmax was 1.38 ± 0.59 h.

Which results are given for `CCC(CC)O[C@@H]1C=C(P(=O)(O)O)C[C@H](N)[C@H]1NC(C)=O` [3a, tamiphosphor]?
solubility [11]: ≤ 50 mg/mL; dose at which mortality occurred ([1]; iv): above 750 mg/kg; nontoxic concentration to MDCK cells (highest testing concentration) [2]: > 100 µM; AUC0→t ([3]; iv, 1 mg/kg): 2620 ± 671 ng·h/mL; AUC0→∞ ([3]; iv, 1 mg/kg): 2634 ± 672 ng·h/mL; MRT ([3]; iv, 1 mg/kg): 1.47 ± 0.25 h; k ([3]; iv, 1 mg/kg): 0.213 ± 0.041 h⁻¹; AUC0→t ([3]; po, 1 mg/kg): 51.04 ± 28.95 ng·h/mL; AUC0→∞ ([3]; po, 1 mg/kg): 55.69 ± 25.51 ng·h/mL; MRT ([3]; po, 1 mg/kg): 4.40 ± 0.64 h; k ([3]; po, 1 mg/kg): 0.265 ± 0.127 h⁻¹

Which “survival vs control group” value ([4]; 1 mg/kg/day) does the source give for `CCC(CC)O[C@@H]1C=C(P(=O)(O)O)C[C@H](NC(=N)N)[C@H]1NC(C)=O` [4a, guanidino-tamiphosphor] here?
Its value is “significantly different from the control group”.

What about the “survival vs control group” value ([4]; 10 mg/kg/day) of the same compound?
The value was “significantly different from the control group”.

What about the AUC0→t [12] of the same compound?
Its AUC0→t is 939 ± 346 ng·h/mL.

And the “AUC0→∞” value [12]?
Its value is 1050 ± 355 ng·h/mL.

What about the MRT [12] of the same compound?
The MRT was 3.61 ± 0.81 h.

What about the k [12] of the same compound?
Its k is 0.300 ± 0.073 h⁻¹.

And the “nontoxic concentration to MDCK cells (highest testing concentration)” value [2]?
Its value is > 100 µM.

What about the AUC0→t ([3]; iv, 0.5 mg/kg) of the same compound?
Its AUC0→t is 666 ± 171 ng·h/mL.

And the “AUC0→∞” value ([3]; iv, 0.5 mg/kg)?
The value was 669 ± 173 ng·h/mL.

And the MRT ([3]; iv, 0.5 mg/kg)?
The MRT was 0.66 ± 0.06 h.

What about the AUC0→t ([3]; po, 3 mg/kg) of the same compound?
The AUC0→t was 116.7 ± 54.5 ng·h/mL.

And the “AUC0→∞” value ([3]; po, 3 mg/kg)?
The value was 128.4 ± 59.4 ng·h/mL.

And the MRT ([3]; po, 3 mg/kg)?
The MRT was 2.40 ± 0.57 h.

What about the k ([3]; po, 3 mg/kg) of the same compound?
The k was 0.485 ± 0.090 h⁻¹.

Read-outs that look alike come from different tables or passages of the source.
